Results taken from PubChem BioAssay AID624170 (National Center for Advancing Translational Sciences (NCATS), 2012).
Only a part is listed here, and it is no random draw. Inconclusive results are not listed. Where a call stands in place of a potency, no number is given. Activity calls are given as the source filed them. Calls follow the shape of the dose curve; as a rule, active = well fitted inhibition curve with a large enough effect; inconclusive = small, poorly fitted or top-dose-only effect, or another doubt; inactive = no such curve, though single readings can be large or run the other way.

Chains of the proteins cited; added tags and fusions are not shown. Lines headed by an entry give the natural chain unless they say otherwise; changes in a name come on top.
UniProt O94925: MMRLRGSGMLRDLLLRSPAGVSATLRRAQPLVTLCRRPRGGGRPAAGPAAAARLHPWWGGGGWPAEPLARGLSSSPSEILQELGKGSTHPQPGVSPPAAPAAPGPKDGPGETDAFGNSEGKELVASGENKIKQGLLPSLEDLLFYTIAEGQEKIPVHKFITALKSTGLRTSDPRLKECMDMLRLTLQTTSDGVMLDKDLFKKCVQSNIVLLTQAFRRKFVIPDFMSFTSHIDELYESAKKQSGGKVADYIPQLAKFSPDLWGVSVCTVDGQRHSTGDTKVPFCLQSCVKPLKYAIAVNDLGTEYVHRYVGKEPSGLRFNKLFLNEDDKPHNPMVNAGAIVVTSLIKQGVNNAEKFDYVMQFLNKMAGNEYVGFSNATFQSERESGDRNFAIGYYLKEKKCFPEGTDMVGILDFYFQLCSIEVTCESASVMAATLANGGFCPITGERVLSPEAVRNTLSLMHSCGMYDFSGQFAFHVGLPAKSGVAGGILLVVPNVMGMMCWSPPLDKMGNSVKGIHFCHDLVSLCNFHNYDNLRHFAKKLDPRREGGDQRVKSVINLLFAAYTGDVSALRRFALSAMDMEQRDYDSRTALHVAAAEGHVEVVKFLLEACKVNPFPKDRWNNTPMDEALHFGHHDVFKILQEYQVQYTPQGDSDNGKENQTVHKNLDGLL

Target: Glutaminase kidney isoform, mitochondrial (Homo sapiens) (UniProt O94925)
Experiment: qHTS for Inhibitors of Glutaminase (GLS)
Conditions: GLS enzymatic activity, qHTS titration; series mostly up to 45.5 µM
Potency is read from the fitted curve at half-maximal effect.

SMILES | Potency
Cc1cccc(OCC(=O)OC2CN3CCC2CC3)c1 (centres undefined) | inactive
O=[As](O)(c1cccc(O)c1)c1cccc(O)c1 | inactive
CS(=O)(=O)c1ccc(Cl)c(NC(=O)COC(=O)C(O)(c2ccccc2)c2ccccc2)c1 | inactive
O=[As](O)(O)c1cccnc1 | inactive
COc1cc(C(=O)NCC2(N3CCOCC3)CCCCC2)cc(Cl)c1OC(C)C | inactive
CN(C(=O)Cc1ccc(Cl)c(Cl)c1)[C@@H]1CC[C@]2(CCCO2)C[C@H]1N1CCCC1 | inactive
O=C(OC1CN2CCC1CC2)c1ccc(Cl)cc1 (centres undefined) | inactive
CCOP(=O)(Nc1cccc2ccccc12)OCC | inactive
COc1cc(C2NCCC3(OCCO3)C2(C)C)cc(OC)c1OC (centres undefined) | inactive
CCCOP(=S)(Nc1nc(N)cc(=O)[nH]1)OCCC | inactive
Cc1ccc(NCCc2c([N+](=O)[O-])cc([N+](=O)[O-])cc2[N+](=O)[O-])cc1 | inactive
Nc1cccc2c([As](=O)(O)O)cccc12 | inactive
O=C(O)COc1ccc([As](=O)(O)O)cc1[N+](=O)[O-] | inactive
Nc1ccccc1[As](=O)(O)c1ccccc1 | inactive
O=P(Nc1nccs1)(Oc1ccccc1)Oc1ccccc1 | inactive
O=P(Nc1nccs1)(c1ccccc1)c1nc2ccccc2s1 (centres undefined) | inactive
CCOP1(=S)c2c(C)nn(CCC#N)c2N=C(c2ccccc2F)N1C (centres undefined) | inactive
CN(C(=O)Cc1ccc(Cl)c(Cl)c1)[C@H]1CC[C@@]2(CCCO2)C[C@@H]1N1CCCC1 | inactive
O=[N+]([O-])c1ccc2c(c1)nnn2O | inactive
CN(C)C(=O)c1cc([N+](=O)[O-])cc2c1-c1c(cc([N+](=O)[O-])cc1[N+](=O)[O-])C2=O | inactive
CCOP1(=S)c2c(C)nn(CCC#N)c2N=C(c2ccc(F)cc2)N1C (centres undefined) | inactive
CN(C(=O)Cc1ccccc1)[C@@H]1CC[C@]2(CCCO2)C[C@H]1N1CCCC1 | inactive
N#CCCN(C(=O)COC(=O)C(O)(c1ccccc1)c1ccccc1)c1ccc(F)cc1 | inactive
NC(=O)Nc1ccc([As](=O)(O)O)cc1 | inactive

SMILES | Potency
CCCC1OP(=O)(Nc2ccccc2)OCC1CC (centres undefined) | inactive
O=C(/C=C/c1ccccc1)OC1CN2CCC1CC2 (centres undefined) | inactive
CN(C)C1(CNC(=O)c2ccc(S(C)(=O)=O)cc2)CCCCC1 | inactive
Cc1ccc(C(=O)OC2CN3CCC2CC3)cc1 (centres undefined) | inactive
CC1CCC(C(C)C)C(OP(=O)(Nc2ccccn2)c2ccccc2)C1 (centres undefined) | inactive
Cc1nn(-c2ccccc2)c2c1P(=O)(N1CCOCC1)N(C)C(c1ccccc1)=N2 (centres undefined) | inactive
Cc1ccc(OCC(=O)OC2CN3CCC2CC3)cc1 (centres undefined) | inactive
O=[As](O)(c1cccs1)c1cccs1 | inactive
NS(=O)(=O)c1cccc(NC(=O)COC(=O)C(O)(c2ccccc2)c2ccccc2)c1 | inactive
O=P1(Nc2ccc(Br)cn2)COc2ccccc2OC1 | inactive
Nc1cccc([As](=O)(O)c2ccccc2)c1 | inactive
O=P1(Nc2ncccn2)COc2ccccc2OC1 | inactive
CC(C)(C)C(=O)NC(Sc1ncccn1)C(Cl)(Cl)Cl (centres undefined) | inactive
O=P1(N(CCCl)CCCl)NCCC(C(F)(F)F)O1 (centres undefined) | inactive
CCOP(=O)(Nc1ccc(C)cn1)OCC | inactive
CN(CCCl)Cc1cc(Cl)c(NC2=NCCN2)c(Cl)c1 | inactive
CCOP(=O)(NC(=NC(C)c1ccccc1)NC(C)c1ccccc1)OCC (centres undefined) | inactive
CCC1=CC2Cc3nc4ccc(Cl)cc4c(N)c3C(C1)C2 (centres undefined) | inactive
O=P1(Nc2ccccn2)COc2ccccc2OC1 | inactive
CC1(CBr)Cn2c(nc3ccccc3c2=O)S1 (centres undefined) | inactive
CN(C(=O)Cc1ccc(Cl)c(Cl)c1)[C@@H]1CCCC[C@H]1N1CCCC1 | inactive
CC(C)/C=N\N=C(\N)N[N+](=O)[O-] | inactive
COc1ccccc1CNC(=O)COC(=O)C(O)(c1ccccc1)c1ccccc1 | inactive
O=C(Nc1ccncc1[N+](=O)[O-])c1ccc([N+](=O)[O-])cc1[N+](=O)[O-] | inactive

SMILES | Potency
O=C(COc1ccccc1)OC1CN2CCC1CC2 (centres undefined) | inactive
O=C(O)C(=O)c1ccc(N(CCCl)CCCl)cc1 | inactive
COC(=O)C1(C)COP(=O)(N2CCCC2)OC1 (centres undefined) | inactive
COP1(=S)c2c(C)nn(CCC#N)c2N=C(c2ccc(F)cc2)N1C (centres undefined) | inactive
CCC(C)N(CC(C)C)C(=S)SC(NC(C)=O)C(Cl)(Cl)Cl (centres undefined) | inactive
CCOC(=O)c1ccc(NC(=O)C(C)(CCl)SC)cc1 (centres undefined) | inactive
CSc1ccc(Nc2c([N+](=O)[O-])cc([N+](=O)[O-])cc2[N+](=O)[O-])cc1 | inactive
O=C(OC1CN2CCC1CC2)c1cccc([N+](=O)[O-])c1 (centres undefined) | inactive
Cc1cc(SC(NC(=O)c2ccccc2)C(Cl)(Cl)Cl)nc(C(C)C)n1 (centres undefined) | inactive
CCCCOc1ccc(C(=O)NCC2(N3CCCCC3)CCCCC2)cc1OC | inactive
COP(=O)(OC)N1CC1c1ccccc1 (centres undefined) | inactive
CC1CCNP(=O)(N(CCCl)CCCl)O1 (centres undefined) | inactive
O=C(O)C(O)c1ccc(N(CCCl)CCCl)cc1 (centres undefined) | inactive
CCOC(=O)Nc1ccc([As](=O)(O)O)c(O)c1 | inactive
O=[N+]([O-])c1ccc(Nc2ccc(Oc3ccc([N+](=O)[O-])cc3[N+](=O)[O-])cc2)c([N+](=O)[O-])c1 | inactive
Cc1cc(SC(NC=O)C(Cl)(Cl)Cl)ncn1 (centres undefined) | inactive
O=P(Nc1ccccn1)(c1cccc2ccccc12)c1cccc2ccccc12 | inactive
CCOC(=O)Nc1cccc([As](=O)(O)O)c1 | inactive
Cc1ccc2nc3c(c(C)c2c1)CC(C(Cl)Cl)S3 (centres undefined) | inactive
Cc1ccc(OP(=O)(Nc2ccc([N+](=O)[O-])cn2)Oc2ccc(C)cc2)cc1 | inactive
[N-]=[N+]=NC1CCCCC1NC(=O)c1cc([N+](=O)[O-])cc([N+](=O)[O-])c1 (centres undefined) | inactive
O=[N+]([O-])c1ccc(-c2cc([N+](=O)[O-])c(O)c([N+](=O)[O-])c2)cc1 | active: 17.8 µM
COc1cc(C(=O)NCC2(N3CCOCC3)CCCCC2)ccc1OCC(C)C | inactive
O=[As](O)(c1ccc(O)cc1)c1ccccc1O | inactive

SMILES | Potency
C[As](=O)(O)c1cccc(C(=O)O)c1 | inactive
O=[N+]([O-])c1cc([N+](=O)[O-])c(-c2ccn[nH]2)s1 | inactive
CC(C)NC(=O)NP(=O)(Oc1ccccc1)Oc1ccccc1 | inactive
CCN(CC)C(=S)SC(NC=O)C(Cl)(Cl)Cl (centres undefined) | inactive
O=C(OC1CN2CCC1CC2)c1cccc2[nH]cnc12 (centres undefined) | inactive
COC(=O)C1(C)COP(=O)(N2CCCCCC2)OC1 (centres undefined) | inactive
CC(C)c1ccc(OP(=O)(Nc2ccccn2)Oc2ccccc2F)cc1 (centres undefined) | inactive
ClCCSc1nnc(-c2cccnc2)o1 | inactive
COc1cc(I)ccc1[As](=O)(O)O | inactive
COc1ccc2nc(NP(=O)(c3ccccc3)c3ccccc3)sc2c1 | inactive
O=P1(N(CCCl)CCCl)Nc2ccccc2N1 | inactive
O=P1(N(CCCl)CCCl)OCCCN1CCCl (centres undefined) | inactive
Cc1cc(=O)[nH]c(N[N+](=O)[O-])n1 | inactive
O=C(OC1CN2CCC1CC2)C12CC3CC(CC(C3)C1)C2 (centres undefined) | inactive
Cc1c2c(nc3ccccc13)SC(C(Cl)Cl)C2 (centres undefined) | inactive
COc1ccc(N/C(=N/P(=O)(N2CCOCC2)N2CCOCC2)N2CCOCC2)cc1 | inactive
O=[N+]([O-])c1cc(Oc2ccc([N+](=O)[O-])cc2C(F)(F)F)cc([N+](=O)[O-])c1 | inactive
Cc1ccc(OP(=O)(Nc2nccs2)Oc2ccc(C)cc2)cc1 | inactive
COc1ccccc1OP(=O)(Nc1ccc(C)cn1)Oc1ccccc1OC | inactive
CN1CCCC(OC(=O)C(c2ccccc2)c2ccccc2)C1 (centres undefined) | inactive
Clc1ccc(Cl)c(NC2=NCC(CBr)S2)c1 (centres undefined) | inactive
NC(=O)c1cc([N+](=O)[O-])cc([N+](=O)[O-])c1N | inactive
Cc1ccc(N/C(=N/P(=O)(N2CCOCC2)N2CCOCC2)N2CCOCC2)cc1 | inactive
CN(C(=O)Cc1ccc(Cl)c(Cl)c1)[C@H]1CCCC[C@H]1N1CCCC1 | inactive

SMILES | Potency
O=[N+]([O-])C1C(O)C(O)C([N+](=O)[O-])C(O)C1O (centres undefined) | inactive
Nc1cc(N)c2nonc2c1[N+](=O)[O-] | inactive
CC(C)CC(=O)NC(Sc1ccc(Cl)cc1)C(Cl)(Cl)Cl (centres undefined) | inactive
O=C(NC(Sc1ccncn1)C(Cl)(Cl)Cl)c1ccccc1 (centres undefined) | inactive
Oc1ccccc1CNc1ccccn1 | inactive
CN(C(=O)Cc1ccc(Cl)c(Cl)c1)[C@H]1CCCC[C@@H]1N1CCCC1 | inactive
Cc1ccc(NP(=O)(Oc2ccccc2F)Oc2ccccc2F)nc1 | inactive
Cc1cc(SC(NC(=O)c2ccc(F)cc2)C(Cl)(Cl)Cl)ncn1 (centres undefined) | inactive
CCOP(=O)(Nc1ccccc1)OCC | inactive
CCCC1OP(N)(=O)OCC1CC (centres undefined) | inactive
CC(=O)Nc1ccc([As](=O)(O)O)cc1 | inactive
O=C(O)c1ccccc1[As](=O)(O)O | inactive
O=P(Nc1nc2ccc(Cl)cc2s1)(c1ccccc1)c1ccccc1 | inactive
CN(C)P(=O)(N(C)C)n1c(Nc2ccccc2)nnc1-c1ccccc1 | inactive
CCN(N=Nc1nonc1N)c1nonc1N | inactive
Nc1cccc2ccc([As](=O)(O)O)cc12 | inactive
O=C(Nc1cc([As](=O)(O)O)ccc1O)c1ccccc1 | inactive
O=P1(N(CCCl)CCCl)OCCCS1 (centres undefined) | inactive
COC(=O)C1(C)COP(=O)(Nc2ccccc2)OC1 (centres undefined) | inactive
O=[N+]([O-])c1cccc(NC2=NCC(CBr)S2)c1 (centres undefined) | inactive
O=C(O)CNc1ccc([As](=O)(O)O)cc1 | inactive
CC(C)(C)C(=O)NC(Sc1ccncn1)C(Cl)(Cl)Cl (centres undefined) | inactive
O=[N+]([O-])c1ncn(CCn2ncnc2[N+](=O)[O-])n1 | inactive
